Test results: patent US9320722B2, “Regulators of aldehyde dehydrogenase ALDH3A1 and related therapeutic methods” (Indiana University Research and Technology Corporation, priority 2013, dated 2016)

Chains of the proteins cited; added tags and fusions are not shown. Residues count along the entry.
UniProt P05091, 18-517 limits assumed: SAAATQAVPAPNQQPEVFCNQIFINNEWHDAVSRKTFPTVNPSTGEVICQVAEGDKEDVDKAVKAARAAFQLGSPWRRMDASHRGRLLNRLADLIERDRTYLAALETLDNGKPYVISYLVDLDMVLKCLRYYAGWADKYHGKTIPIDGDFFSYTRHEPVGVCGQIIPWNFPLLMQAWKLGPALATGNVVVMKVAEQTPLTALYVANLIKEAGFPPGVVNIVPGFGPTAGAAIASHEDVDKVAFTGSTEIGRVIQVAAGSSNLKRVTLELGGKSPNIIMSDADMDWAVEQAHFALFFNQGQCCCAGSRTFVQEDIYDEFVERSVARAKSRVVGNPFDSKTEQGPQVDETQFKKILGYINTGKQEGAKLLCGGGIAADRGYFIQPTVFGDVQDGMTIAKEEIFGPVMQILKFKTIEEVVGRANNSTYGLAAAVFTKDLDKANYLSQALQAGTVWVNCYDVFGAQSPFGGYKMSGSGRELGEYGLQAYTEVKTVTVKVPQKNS
UniProt P00352, whole entry: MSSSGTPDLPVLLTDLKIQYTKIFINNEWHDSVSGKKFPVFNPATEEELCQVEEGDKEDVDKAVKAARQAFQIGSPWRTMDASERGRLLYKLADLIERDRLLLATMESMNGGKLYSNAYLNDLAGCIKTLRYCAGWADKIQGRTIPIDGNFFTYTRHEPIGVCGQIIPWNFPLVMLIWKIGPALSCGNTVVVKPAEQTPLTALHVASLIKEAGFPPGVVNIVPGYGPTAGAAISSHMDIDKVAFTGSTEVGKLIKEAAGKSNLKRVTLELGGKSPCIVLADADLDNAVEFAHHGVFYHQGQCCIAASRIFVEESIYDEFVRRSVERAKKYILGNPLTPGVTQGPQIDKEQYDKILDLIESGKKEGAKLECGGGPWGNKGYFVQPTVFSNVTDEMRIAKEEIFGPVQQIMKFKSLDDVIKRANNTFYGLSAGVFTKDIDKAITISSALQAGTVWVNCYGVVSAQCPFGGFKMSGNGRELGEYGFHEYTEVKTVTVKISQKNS
UniProt P30838, whole entry: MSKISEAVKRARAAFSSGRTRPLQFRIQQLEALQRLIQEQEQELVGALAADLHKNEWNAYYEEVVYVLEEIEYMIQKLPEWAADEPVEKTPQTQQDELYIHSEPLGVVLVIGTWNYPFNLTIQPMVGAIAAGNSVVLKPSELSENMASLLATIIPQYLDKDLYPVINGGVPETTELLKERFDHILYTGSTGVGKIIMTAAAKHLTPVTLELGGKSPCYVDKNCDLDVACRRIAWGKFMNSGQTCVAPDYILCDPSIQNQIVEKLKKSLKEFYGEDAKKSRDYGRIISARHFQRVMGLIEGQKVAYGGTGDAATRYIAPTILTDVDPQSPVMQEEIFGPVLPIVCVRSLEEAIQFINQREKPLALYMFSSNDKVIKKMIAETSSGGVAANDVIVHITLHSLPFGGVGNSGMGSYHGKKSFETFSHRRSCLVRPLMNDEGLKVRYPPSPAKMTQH

Experiments:
ALDH2 = ALDH2 (Homo sapiens (Human), UniProt P05091); assay: ALDH2 dehydrogenase activity / IC50 determination (propionaldehyde substrate); assay type: biochemical; settings: for IC50 (micromolar) ALDH2: Tables 1A/1B, propionaldehyde substrate, S.D. in parentheses; for inhibitory potential toward ALDH2 activity in vitro (in words): CB29 analogs
ALDH1A1 = ALDH1A1 (Homo sapiens (Human), UniProt P00352); assay: ALDH1A1 dehydrogenase activity / IC50 determination (propionaldehyde substrate); assay type: biochemical; settings: for IC50 (micromolar) ALDH1A1: Tables 1A/1B, propionaldehyde substrate, S.D. in parentheses; for inhibitory potential / activity toward ALDH1A1 in vitro (in words): CB29 analogs
ALDH3A1 = ALDH3A1 (Homo sapiens (Human), UniProt P30838); settings: benzaldehyde substrate
Solubility = assay type: physicochemical; settings: for concentration of homogenous solution easily formed: in the presence of […] DMSO
A549 cells = settings: FIG. 4A; for sensitivity to mafosfamide on co-treatment (in words), A549: 50 μM inhibitor + mafosfamide; for effect on cell proliferation as single agent (in words), A549: 50 μM inhibitor
SF767 cells = settings: for sensitivity to mafosfamide on co-treatment (in words), SF767: 50 μM inhibitor + 125 μM mafosfamide; for sensitivity to mafosfamide on co-treatment (in words), SF767 / effect on cell proliferation as single agent (in words), SF767: FIG. 4B; for effect on cell proliferation as single agent (in words), SF767: 50 μM inhibitor; for dose dependence of mafosfamide sensitization (in words), SF767: increasing inhibitor concentration, 125 μM mafosfamide, FIG. 5A
[1] = Table 6, SAR of CB7 analogs, tested up to 100 μM

SMILES | IC50 (micromolar) ALDH2 (ALDH2) | IC50 (micromolar) ALDH1A1 (ALDH1A1) | inhibitory potential toward ALDH2 activity in vitro (in words) (ALDH2) | concentration of homogenous solution easily formed (Solubility) [µM] | sensitivity to mafosfamide on co-treatment (in words), A549 (A549 cells) | effect on cell proliferation as single agent (in words), A549 (A549 cells) | inhibitory potential / activity toward ALDH1A1 in vitro (in words) (ALDH1A1) | sensitivity to mafosfamide on co-treatment (in words), SF767 (SF767 cells) | effect on cell proliferation as single agent (in words), SF767 (SF767 cells) | further results
O=S(=O)(c1ccc(Cl)cc1)n1c(N2CCCCC2)nc2ccccc21 |  |  |  |  |  |  |  |  |  | ALDH2 (ALDH2; [1]): NI; ALDH1A1 (ALDH1A1; [1]): NI
CC(C)C(=O)Nc1ccc(Nc2ccc(S(C)(=O)=O)cc2[N+](=O)[O-])cc1 | NI |  |  |  |  |  |  |  |  | 
CC(Nc1ccc(S(C)(=O)=O)cc1[N+](=O)[O-])C(=O)O (centres unmarked) | NI |  |  |  |  |  |  |  |  | IC50 (micromolar) ALDH3A1 (ALDH3A1; Tables 1A/1B, S.D. for three assays in parentheses): NI; IC50 against ALDH3A1 (ALDH3A1): NI
CN(C)c1ccc(Nc2ccc(S(=O)(=O)C(F)(F)F)cc2[N+](=O)[O-])cc1 | WA (WA represents (30-50) % activation shown by 100 μM compound to respective enzymes) | NI |  |  |  |  |  |  |  | 
CC(C)NS(=O)(=O)c1ccc(Nc2ccc3c(c2)CCC3)c([N+](=O)[O-])c1 | NI | NI | no inhibitory potential | ≥ 100 | increased sensitivity to mafosfamide | little effect on cell proliferation | no inhibitory potential | increased sensitivity to mafosfamide | little effect on cell proliferation | ED50 value of mafosfamide in the presence of inhibitor, SF767 (SF767 cells): 108 ± 6 µM; dose dependence of mafosfamide sensitization (in words), SF767 (SF767 cells): dose-dependent enhancement in mafosfamide sensitivity
CS(=O)(=O)c1ccc(Nc2ccc3c(c2)CCC3)c([N+](=O)[O-])c1 | NI | NI | no inhibitory potential | ≥ 100 | increased sensitivity to mafosfamide | little effect on cell proliferation | no inhibitory potential | increased sensitivity to mafosfamide | little effect on cell proliferation | 
CS(=O)(=O)c1ccc(Nc2ccc(NCC3CCCC3)cc2)c(S(C)(=O)=O)c1 | NI |  |  |  |  |  |  |  |  | lower solubility compared with CB29 (Solubility; methyl sulfonyl instead of nitro at R3): more than 5 fold
CNS(=O)(=O)c1ccc(Nc2ccc(NC(=O)CC(C)C)cc2)c([N+](=O)[O-])c1 | NI |  |  |  |  |  |  |  |  | 
CC(C)NS(=O)(=O)c1ccc(NC2CCN(CC(=O)Nc3ccccc3)CC2)c([N+](=O)[O-])c1 | NI | NI | no inhibitory potential | ≥ 100 | increased sensitivity to mafosfamide | little effect on cell proliferation | no inhibitory potential | increased sensitivity to mafosfamide | little effect on cell proliferation | ED50 value of mafosfamide in the presence of inhibitor, SF767 (SF767 cells): 94 ± 5 µM; dose dependence of mafosfamide sensitization (in words), SF767 (SF767 cells): dose-dependent enhancement in mafosfamide sensitivity
CC(=O)Nc1ccc(Oc2ccc(S(=O)(=O)C(F)(F)F)cc2[N+](=O)[O-])cc1 | NI | NI |  |  |  |  |  |  |  | 
